This note sets out measurements from patent US10202406B2, “Boron cluster compounds and uses thereof” (priority 2011, dated 2019).

The structures appear in SMILES notation.

The data set deals with mice. As to the kind of experiment: Motor deficit testing, inverted screen test after injection. As to conditions: mice after hind limb injection.

Consider `CCN(CC)CC(=O)Nc1c(C)cccc1C` [lidocaine, reference compound], for which the “motor block (number of experiments with motor block)” value is recorded as “nearly all the lidocaine experiments showed motor block”.
